{"source": "patent US4361573A", "about": "“α,α-Diaryl-β-(tert-amino)-propanols and diuretic pharmaceutical compositions containing them” (Temmler AG, priority 1974, dated 1982)", "origin": "cited, not measured here", "conditions": "mouse, in vivo, po; cited from earlier work", "data": [{"smiles": "Nc1nc(N)c2nc(-c3ccccc3)c(N)nc2n1", "note": "[2.4.7-triamino-6-phenyl-pteridine, reference compound]", "values": [{"measurement": "LD50", "value": "ca. 300 mg/kg"}]}]}
